From ChEMBL document CHEMBL3352141, “Carboline- and phenothiazine-derivated heterocycles as potent SIGMA-1 protein ligands” (Eur J Med Chem, 2015)

Sequences of proteins named here, by UniProt entry; tags and fusion partners are left off.
UniProt Q99720, whole entry: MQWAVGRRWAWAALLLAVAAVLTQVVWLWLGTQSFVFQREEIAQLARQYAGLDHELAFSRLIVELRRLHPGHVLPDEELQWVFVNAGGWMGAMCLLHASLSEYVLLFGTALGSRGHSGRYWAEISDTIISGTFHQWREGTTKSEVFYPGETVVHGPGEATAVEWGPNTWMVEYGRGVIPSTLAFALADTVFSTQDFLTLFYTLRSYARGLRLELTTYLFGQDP

Target: Sigma non-opioid intracellular receptor 1 (Homo sapiens, UniProt Q99720)
Experiment: Displacement of [3H](+)-pentazocine from human sigma 1 receptor in human Jurkat cell membranes incubated for 2 hrs by liquid scintillation counting

Ki [nM]	Compound
7.1	CN(CCCN1C(=O)[C@H]2Cc3ccccc3CN2C1=O)Cc1ccccc1
4.5	CN(CCCN1C(=O)[C@@H]2Cc3ccccc3CN2C1=O)Cc1ccccc1
